## Apparent affinities of Ab-14 variants for a coronavirus HR2 peptide

Data: MIT Lincoln Laboratory AlphaSeq set, Engelhart et al. 2022, doi:10.1038/s41597-022-01779-4, as distributed in FLAb.

Target: peptide PDVDLGDISGINAS, taken from heptad repeat 2 (HR2) of SARS-CoV-2 spike.

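Phage display of a naive human antibody library on the peptide gave the parent. In library AAYL50, one, two or three CDR residues were substituted; doubles and triples were drawn at random. In AlphaSeq, yeast of one mating type display the scFv and yeast of the other type display the target. Binding brings cells together so that they mate, and sequencing counts the barcode pairs among the diploids. A regression on co-assayed BCL2-family reference pairs converts the normalised counts of each replicate to an apparent Kd. Each pool was mated in three replicate cultures.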

The variants keep the heavy chain, the linker and the frameworks of Ab-14 (scFv order VH, a (GGGGS)3 linker, VL).
VH: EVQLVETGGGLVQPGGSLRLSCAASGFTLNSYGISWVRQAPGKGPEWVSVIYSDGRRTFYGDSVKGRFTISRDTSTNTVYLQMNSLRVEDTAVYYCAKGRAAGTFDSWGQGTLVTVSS
VL: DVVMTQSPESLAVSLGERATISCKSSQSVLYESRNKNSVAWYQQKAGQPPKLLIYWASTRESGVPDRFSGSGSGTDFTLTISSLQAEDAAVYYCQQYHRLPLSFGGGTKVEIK

Changes read parent residue, position, new residue, counted from the first residue of the VL shown. Numbers give log10(Kd / nM), so 0 is 1 nM and 3 is 1 µM. Smaller is tighter. A pair that was not seen in that replicate is written "ND"; this usually means weak binding, but a binder can also be missed. Nonspecific signal, from three strains lacking the peptide, appeared in 18% of pairings of library AAYL50, centred on 4.19 (5% of these signals below 2.99); values are not corrected for it. Also given: how often the same scFv was detected with the empty control strains.

With S25C+K36D+L100E the result was ND, 3.12, ND (controls 0 of 9).
With K36A+L102W the result was 1.26, 1.17, 1.25 (controls 2 of 9).
With Y31V+R34Y+N35L the result was 1.35, 1.37, 1.53 (controls 1 of 9).
With S25R+V39F+Q95E the result was ND, ND, 5.12 (controls 4 of 9).
With S28H+Y31A+Y97S the result was 4.33, 4.29, 3.65 (controls 6 of 9).
With H98A+R99V the result was 1.05, 1.14, 1.26 (controls 2 of 9).
With V29H+Y31I+S62T the result was 3.01, 2.56, 2.41 (controls 2 of 9).
With S28T+Y31R+E32Y the result was ND, ND, ND (controls 0 of 9).
With V39D+Q95C the result was ND, ND, ND (controls 0 of 9).
With S28A+A40E+L102F the result was 4.02, ND, ND (controls 2 of 9).
With K36R+P101W the result was 1.54, 2.11, 1.95 (controls 1 of 9).
With L30V+V39G+T59Q the result was 5.96, 4.83, 5.66 (controls 1 of 9).
With E32C+Q96K+L102C the result was 5.82, ND, ND (controls 1 of 9).
With Y31W+N37R+H98C the result was 3.11, 2.59, 3.12 (controls 3 of 9).
With V39C+A57C+Q96A the result was 3.67, ND, 4.76 (controls 1 of 9).
With E32N+K36G the result was ND, ND, ND (controls 1 of 9).
With Y31G+Q96M the result was 0.36, 0.62, 0.55 (controls 0 of 9).
With R34I+S62C+H98Q the result was 2.43, 2.31, 1.74 (controls 0 of 9).
With Q27R+R34E+K36R the result was ND, ND, ND (controls 0 of 9).
With L30K+S62V+Q96C the result was ND, 2.90, ND (controls 4 of 9).
With L30A+S38E+A40K the result was ND, ND, ND (controls 1 of 9).
With K24G+Y31M+Q95P the result was ND, 3.59, 5.30 (controls 2 of 9).
With K24Q+R34Q+W56V the result was ND, ND, 3.27 (controls 0 of 9).
With N37Q+E61T+S103H the result was 6.02, ND, ND (controls 1 of 9).
With S26Q+S58R+S62C the result was ND, ND, ND (controls 1 of 9).
With H98R+R99Y+L100V the result was ND, 4.71, ND (controls 1 of 9).
With Q27R+V39P+S58D the result was 3.72, ND, ND (controls 4 of 9).
With S25Q+V29Q+K36C the result was 1.81, 1.93, 2.30 (controls 0 of 9).
With V29P+S38F+R60H the result was 6.02, ND, ND (controls 2 of 9).
With Y31W+R60Q+S62A the result was 2.48, 2.38, 2.78 (controls 0 of 9).
With S62K+H98M+R99W the result was 2.07, 1.79, 1.79 (controls 2 of 9).
With K24W+V29H+S38T the result was ND, 3.08, ND (controls 1 of 9).
With K24Y+S26L+H98F the result was ND, 4.71, ND (controls 1 of 9).
With Q27D+S62W+P101E the result was 1.11, 1.29, 1.30 (controls 1 of 9).
With S26Q+E32C+P101T the result was ND, ND, ND (controls 2 of 9).
With Y31M+A40N+E61C the result was 4.02, ND, ND (controls 1 of 9).
With K24L+Q95D+R99A the result was ND, ND, ND (controls 0 of 9).
With R34V+P101L+L102C the result was ND, ND, ND (controls 0 of 9).
With A40Q+T59Y+H98R the result was ND, ND, ND (controls 0 of 9).
With S25Q+S33A+N37T the result was ND, 3.41, 3.61 (controls 3 of 9).
With S58V+Y97I+S103W the result was 3.09, 2.35, 2.64 (controls 3 of 9).
With V29Y+E32A+A57Y the result was ND, ND, ND (controls 2 of 9).
With V29G+S38Q+V39N the result was ND, ND, ND (controls 2 of 9).
With L30Q+S33D+R34K the result was 0.64, 0.77, 0.74 (controls 6 of 9).
With V39A+S58I+Q95D the result was ND, ND, ND (controls 3 of 9).
With E32N+R34P+Q95W the result was ND, ND, ND (controls 0 of 9).
With S28P+N35T+R60P the result was 2.69, 2.78, 3.51 (controls 1 of 9).
With S28V+A40G+S62C the result was ND, 3.88, ND (controls 2 of 9).
With V29M+S38R+H98N the result was 1.97, 1.82, 2.03 (controls 0 of 9).
With R60V+Q96P+L102Y the result was ND, ND, 6.29 (controls 1 of 9).

Picked from the list: the 8 lowest averages where every replicate gave a value.

changes	replicates, log10 nM	control signals
Y31G+Q96M	0.36, 0.62, 0.55	0/9
L30Q+S33D+R34K	0.64, 0.77, 0.74	6/9
H98A+R99V	1.05, 1.14, 1.26	2/9
K36A+L102W	1.26, 1.17, 1.25	2/9
Q27D+S62W+P101E	1.11, 1.29, 1.30	1/9
Y31V+R34Y+N35L	1.35, 1.37, 1.53	1/9
K36R+P101W	1.54, 2.11, 1.95	1/9
S62K+H98M+R99W	2.07, 1.79, 1.79	2/9